Source: patent US7335723B2, “Melanin-concentrating hormone antagonists” (priority 2001, dated 2008)

By UniProt entry, the sequences of proteins in these tests, tags left out. Where a name states a change or a piece, a line headed by the entry shows the natural chain unless it says otherwise.
UniProt Q969V1: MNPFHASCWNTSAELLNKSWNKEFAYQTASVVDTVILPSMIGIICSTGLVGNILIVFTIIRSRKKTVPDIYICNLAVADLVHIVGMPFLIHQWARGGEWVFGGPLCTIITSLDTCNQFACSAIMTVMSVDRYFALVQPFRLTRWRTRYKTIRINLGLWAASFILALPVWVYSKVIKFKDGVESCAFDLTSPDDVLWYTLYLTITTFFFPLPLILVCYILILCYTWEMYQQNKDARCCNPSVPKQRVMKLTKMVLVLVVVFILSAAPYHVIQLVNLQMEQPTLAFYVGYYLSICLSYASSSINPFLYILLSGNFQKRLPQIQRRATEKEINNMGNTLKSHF
UniProt Q99705: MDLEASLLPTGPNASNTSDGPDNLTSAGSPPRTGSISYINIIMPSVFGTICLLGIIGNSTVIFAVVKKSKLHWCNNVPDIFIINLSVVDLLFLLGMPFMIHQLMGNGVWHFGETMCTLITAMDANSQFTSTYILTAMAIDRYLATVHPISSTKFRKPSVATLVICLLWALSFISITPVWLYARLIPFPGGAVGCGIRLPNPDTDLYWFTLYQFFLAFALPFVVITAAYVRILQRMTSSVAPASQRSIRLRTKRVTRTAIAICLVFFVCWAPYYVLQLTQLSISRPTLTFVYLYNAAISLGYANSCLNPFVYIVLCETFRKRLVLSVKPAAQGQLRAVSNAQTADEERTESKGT
UniProt P97639: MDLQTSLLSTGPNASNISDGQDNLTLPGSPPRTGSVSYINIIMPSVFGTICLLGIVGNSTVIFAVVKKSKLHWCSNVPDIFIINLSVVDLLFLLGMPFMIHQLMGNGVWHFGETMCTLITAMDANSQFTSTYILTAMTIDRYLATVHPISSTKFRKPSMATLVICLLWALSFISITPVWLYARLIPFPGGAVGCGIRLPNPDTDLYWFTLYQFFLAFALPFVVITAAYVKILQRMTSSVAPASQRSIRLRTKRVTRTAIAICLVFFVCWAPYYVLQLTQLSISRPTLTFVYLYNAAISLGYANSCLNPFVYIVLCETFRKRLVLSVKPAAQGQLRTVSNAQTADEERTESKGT

Legend:
[1] = biological target: T1, human MCH-2R (Homo sapiens, UniProt Q969V1); assay: Aequorin bioluminescence functional assay, MCH-2R agonist activity
[2] = biological target: human MCH-1R (Homo sapiens, UniProt Q99705); assay: MCH-1R binding assay, inhibition of [125I]-human MCH binding to membranes
[3] = biological target: rat MCH-1R (Rattus norvegicus, UniProt P97639); assay: Aequorin bioluminescence functional assay, MCH-1R agonist activity
[4] = biological target: T1, human MCH-2R; assay: MCH-2R binding assay, inhibition of [125I]-human MCH binding to membranes; parameters: expressed in transfected cells; host or cells: 293-AEQ17 (aequorin-expressing HEK-293 reporter line); settings: inhibition of [125I]-human MCH (Phe13, Tyr19) binding, cell membranes

Row | Structure (SMILES) | EC50 [1] | MCH-2R Agonist Activation % ([1]; 293-AEQ17 cells expressing human MCH-2R) | IC50 [2] | EC50 [3] | MCH-1R Agonist Activation % ([3]; 293-AEQ17 cells expressing rat MCH-1R) | IC50 [4]
1 | CSCC[C@@H]1NC(=O)[C@@H](NC(=O)CCCCNC(=N)N)CSSC[C@@H](C(N)=O)NC(=O)CNC(=O)CNC(=O)[C@H](Cc2ccc(O)cc2)NC(=O)[C@H](C(C)C)NC(=O)[C@H](CCCNC(=N)N)NC(=O)CNC(=O)[C@H](CC(C)C)NC1=O [SEQ. ID. NO. 15] | > 10 µM | 6% | 0.92 µM | > 10 µM | 3% | 
2 | CSCC[C@@H]1NC(=O)[C@@H](NC(=O)CCCCNC(=N)N)CSSC[C@@H](C(N)=O)NC(=O)[C@H]2CC[C@H](CC2)NC(=O)[C@H]2CC[C@H](CC2)NC(=O)[C@H](Cc2ccc(O)cc2)NC(=O)[C@H](C(C)C)NC(=O)[C@H](CCCNC(=N)N)NC(=O)CNC(=O)[C@H](CC(C)C)NC1=O [SEQ. ID. NO. 29] |  |  | 0.017 µM | > 10 µM |  | 3 µM
